According to US20250134864A1, “METHODS OF WEIGHT LOSS AND PRESERVING SKELETAL MUSCLE MASS” (published 2025):

Columns and labels:
[1] = Phase 2a trial: FAST score (Fibroscan and AST); details: evident in the lowest dose used (150 mg)
[2] = Phase 2a trial: safety and tolerability
[3] = Phase 2a trial: InBody scale measurements of body weight and body composition; details: for Mean body weight decrease compared with placebo: 450 mg (high dose)
[4] = 150 mg, HbA1c 5.7% to 9.0% Subgroup
[5] = 150 mg, HbA1c 5.7%-9.0% subgroup
[6] = 300 mg (head prints 00 mg), HbA1c 5.7%-9.0% subgroup
[7] = 300 mg, HbA1c 5.7% to 9.0% Subgroup

## Cn1c(COc2ccc([N+](=O)[O-])cc2[N+](=O)[O-])cnc1[N+](=O)[O-]
[1]
  FAST score: improves the FAST score
[2]; all Compound 1 doses (150 mg n=2, 300 n=1)
  Subjects who discontinued early: 3
[2]; all Compound 1 doses, 61 days
  Diarrhea, share of Compound 1 subjects: 25% and 35%
  Flushing, share of Compound 1 subjects: 31.6% and 25%
[2]; all dose levels
  Tolerability: well-tolerated at all dose levels
[3]; 150 mg, All Subjects
  Body Fat Mass, Difference in LS Mean at Day 61 (Compound 1 v. Placebo): −1.03 pounds
  Body Fat Mass, LS Mean (Day 61 − Baseline), MMRM: −0.42 pounds
  Dry Lean Mass, Difference in LS Mean at Day 61 (Compound 1 v. Placebo): 0.15 pounds
  Dry Lean Mass, LS Mean (Day 61 − Baseline), MMRM: −0.12 pounds
  Lean Body Mass, Difference in LS Mean at Day 61 (Compound 1 v. Placebo): 0.09 pounds
  Lean Body Mass, LS Mean (Day 61 − Baseline), MMRM: −0.80 pounds
  Percent Body Fat, Difference in LS Mean at Day 61 (Compound 1 v. Placebo): −0.37%
  Percent Body Fat, LS Mean (Day 61 − Baseline), MMRM: −0.08%
  Skeletal Muscle Mass, Difference in LS Mean at Day 61 (Compound 1 v. Placebo): 0.16
  Skeletal Muscle Mass, LS Mean (Day 61 − Baseline), MMRM: −0.34
[3]; 150 mg, Elevated A1C
  Skeletal Muscle Mass, Change from Baseline to Day 61, Mean: 0.63 lbs
  Skeletal Muscle Mass, Change from Baseline to Day 61, Median: 0.85 lbs
[3]; 150 mg, FAS population
  Body Fat Mass, Change from Baseline to Day 61, Mean: −0.3 lbs
  Body Fat Mass, Change from Baseline to Day 61, Median: −0.4 lbs
  Body Fat Mass, Day 61, Mean: 95.4 lbs
  Body Fat Mass, Day 61, Median: 97.8 lbs
[3]; [4]
  Body Fat Mass, Difference in LS Mean at Day 61 (Compound 1 v. Placebo): −3.32 pounds
  Body Fat Mass, LS Mean (Day 61 − Baseline), MMRM: 1.78 pounds
  Dry Lean Mass, Difference in LS Mean at Day 61 (Compound 1 v. Placebo): 0.67 pounds
  Dry Lean Mass, LS Mean (Day 61 − Baseline), MMRM: 0.27 pounds
  Lean Body Mass, Difference in LS Mean at Day 61 (Compound 1 v. Placebo): 1.70 pounds
  Lean Body Mass, LS Mean (Day 61 − Baseline), MMRM: 0.72 pounds
  Percent Body Fat, Difference in LS Mean at Day 61 (Compound 1 v. Placebo): −1.05%
  Percent Body Fat, LS Mean (Day 61 − Baseline), MMRM: −0.61) Percent
  Skeletal Muscle Mass, Difference in LS Mean at Day 61 (Compound 1 v. Placebo): 1.28
  Skeletal Muscle Mass, LS Mean (Day 61 − Baseline), MMRM: 0.57
[3]; [5]
  Body Fat Mass, Change from Baseline to Day 61, Mean: −1.5 lbs
  Body Fat Mass, Change from Baseline to Day 61, Median: −1.8 lbs
  Body Fat Mass, Day 61, Mean: 107.1 lbs
  Body Fat Mass, Day 61, Median: 102.7 lbs
[3]; 150 mg, all subjects
  Skeletal Muscle Mass, Change from Baseline to Day 61, Mean: −0.38 lbs
  Skeletal Muscle Mass, Change from Baseline to Day 61, Median: 0.30 lbs
[3]; [6]
  Body Fat Mass, Change from Baseline to Day 61, Mean: −3.6 lbs
  Body Fat Mass, Change from Baseline to Day 61, Median: −5.1 lbs
  Body Fat Mass, Day 61, Mean: 96.2 lbs
  Body Fat Mass, Day 61, Median: 97 lbs
[3]; 300 mg, All Subjects
  Body Fat Mass, Difference in LS Mean at Day 61 (Compound 1 v. Placebo): −3.84 pounds
  Body Fat Mass, LS Mean (Day 61 − Baseline), MMRM: −3.23 pounds
  Dry Lean Mass, Difference in LS Mean at Day 61 (Compound 1 v. Placebo): 0.12 pounds
  Dry Lean Mass, LS Mean (Day 61 − Baseline), MMRM: −0.15 pounds
  Lean Body Mass, Difference in LS Mean at Day 61 (Compound 1 v. Placebo): 0.03 pounds
  Lean Body Mass, LS Mean (Day 61 − Baseline), MMRM: −0.86 pounds
  Percent Body Fat, Difference in LS Mean at Day 61 (Compound 1 v. Placebo): −1.03%
  Percent Body Fat, LS Mean (Day 61 − Baseline), MMRM: −0.74%
  Skeletal Muscle Mass, Difference in LS Mean at Day 61 (Compound 1 v. Placebo): −0.03
  Skeletal Muscle Mass, LS Mean (Day 61 − Baseline), MMRM: −0.54
[3]; 300 mg, Elevated A1C
  Skeletal Muscle Mass, Change from Baseline to Day 61, Mean: 0.03 lbs
  Skeletal Muscle Mass, Change from Baseline to Day 61, Median: 0.00 lbs
[3]; 300 mg, FAS population
  Body Fat Mass, Change from Baseline to Day 61, Mean: −3.3 lbs
  Body Fat Mass, Change from Baseline to Day 61, Median: −2.6 lbs
  Body Fat Mass, Day 61, Mean: 91.9 lbs
  Body Fat Mass, Day 61, Median: 96.6 lbs
[3]; [7]
  Body Fat Mass, Difference in LS Mean at Day 61 (Compound 1 v. Placebo): −4.90 pounds
  Body Fat Mass, LS Mean (Day 61 − Baseline), MMRM: −3.36 pounds
  Dry Lean Mass, Difference in LS Mean at Day 61 (Compound 1 v. Placebo): 0.54 pounds
  Dry Lean Mass, LS Mean (Day 61 − Baseline), MMRM: 0.13 pounds
  Lean Body Mass, Difference in LS Mean at Day 61 (Compound 1 v. Placebo): 1.13 pounds
  Lean Body Mass, LS Mean (Day 61 − Baseline), MMRM: 0.15 pounds
  Percent Body Fat, Difference in LS Mean at Day 61 (Compound 1 v. Placebo): −1.35%
  Percent Body Fat, LS Mean (Day 61 − Baseline), MMRM: −0.91%
  Skeletal Muscle Mass, Difference in LS Mean at Day 61 (Compound 1 v. Placebo): 0.68
  Skeletal Muscle Mass, LS Mean (Day 61 − Baseline), MMRM: −0.02
[3]; 300 mg, all subjects
  Skeletal Muscle Mass, Change from Baseline to Day 61, Mean: −0.43 lbs
  Skeletal Muscle Mass, Change from Baseline to Day 61, Median: −0.70 lbs
[3]; Day 61, all participants
  Mean body weight decrease compared with placebo: 6 pounds
[3]; Day 61, subgroup with elevated HbA1c
  Mean body weight decrease compared with placebo: 10 pounds
[3]; 450 mg group, Day 61, compared with placebo
  Skeletal muscle mass (and lean body mass and dry lean mass): remained unchanged
[3]; 450 mg, All Subjects
  Body Fat Mass, Difference in LS Mean at Day 61 (Compound 1 v. Placebo): −5.95 pounds
  Body Fat Mass, LS Mean (Day 61 − Baseline), MMRM: −5.34 pounds
  Dry Lean Mass, Difference in LS Mean at Day 61 (Compound 1 v. Placebo): 0.18 pounds
  Dry Lean Mass, LS Mean (Day 61 − Baseline), MMRM: −0.09 pounds
  Lean Body Mass, Difference in LS Mean at Day 61 (Compound 1 v. Placebo): 0.25 pounds
  Lean Body Mass, LS Mean (Day 61 − Baseline), MMRM: −0.64 pounds
  Percent Body Fat, Difference in LS Mean at Day 61 (Compound 1 v. Placebo): −1.49%
  Percent Body Fat, LS Mean (Day 61 − Baseline), MMRM: −1.19%
  Skeletal Muscle Mass, Difference in LS Mean at Day 61 (Compound 1 v. Placebo): 0.04
  Skeletal Muscle Mass, LS Mean (Day 61 − Baseline), MMRM: −0.46
[3]; 450 mg, Elevated A1C
  Skeletal Muscle Mass, Change from Baseline to Day 61, Mean: −0.03 lbs
  Skeletal Muscle Mass, Change from Baseline to Day 61, Median: 0.70 lbs

Where “and” joins values, the source holds several entries; their conditions need not be identical. Equal entries are not always repeated.
